Among the data in PubChem BioAssay AID940 (Emory University Molecular Libraries Screening Center, 2007) are induction values, retold here.

The chains behind the UniProt entries cited, without tags or fusion partners.
UniProt P43116, whole entry: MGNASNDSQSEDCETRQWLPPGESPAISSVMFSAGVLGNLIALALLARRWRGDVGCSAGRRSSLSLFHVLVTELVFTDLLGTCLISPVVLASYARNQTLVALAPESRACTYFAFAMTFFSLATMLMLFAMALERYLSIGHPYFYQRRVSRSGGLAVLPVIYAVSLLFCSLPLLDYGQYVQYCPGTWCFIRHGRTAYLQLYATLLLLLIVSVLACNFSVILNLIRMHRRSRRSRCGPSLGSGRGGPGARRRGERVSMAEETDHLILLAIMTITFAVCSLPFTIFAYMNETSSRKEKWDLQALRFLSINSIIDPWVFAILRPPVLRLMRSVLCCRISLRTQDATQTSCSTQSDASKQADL

The list shows a part of the results, in another mix than the full data. The source made the active and inactive calls.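 The calls were made as follows: active = compounds whose cAMP rise, as percent of the full-agonist control response, exceeds 60; inactive = the rest.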

This assay addresses Prostaglandin E2 receptor EP2 subtype (Homo sapiens) (UniProt P43116). As to the kind of experiment: EP2 receptor modulators, cAMP readout, primary screen, cell-based, HTRF cAMP, PGE2 stimulation (AID 940).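 Also: rat C6 glioma line stably carrying human EP2 under a CMV promoter; the protocol text gives 20 µM as final concentration; 100% = response of wells given 1 µM PGE2.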 The note with it: EP2-expressing cells, cAMP HTRF FRET, PGE2 co-stimulation; at 25 µM; stronger effect = higher value. (In general: In TR-FRET formats the signal depends on donor and acceptor labels being close together.)
Consider `CN(C)c1ccc(C(=O)NCC2(N3CCCCC3)CCCCC2)cc1`, for which the induction is inactive: -9.86%.
In the case of `CCN1CCC(Nc2cccc(F)c2)CC1` it was inactive: 4.76%; in that of `Fc1ccccc1NC1CCN(Cc2ccccc2)CC1`, inactive: -7.98%.
In the case of `CCCOc1ccc(C)cc1CN(CCCl)CCCl` it was inactive: -2.16%; in that of `CCC(CO)(C(=O)OC1CN2CCC1CC2)c1ccccc1` (stereo unspecified), inactive: 6.26%; in that of `COc1cc(OC)cc(C(=O)NCC2(N3CCOCC3)CCCCC2)c1`, inactive: -5.69%.
In the case of `O=C(O)C1(Nc2ccccc2)CCN(Cc2ccccc2)CC1` it was inactive: 10.4%.
For the molecule `CC(C)(C)OC(=O)N1CCC(Nc2ccccc2)CC1`, the induction was inactive: -16.9%.
In the case of `CCOc1ncccc1C(=O)NCC1(N2CCOCC2)CCCCC1`, the induction is inactive: 9.37%.
In the case of `O=C(OC1CN2CCC1CC2)C1c2ccccc2C=Cc2ccccc21` (stereo unspecified) it was inactive: -31.8%; in that of `N/C(=N\O)c1c(N)no[n+]1[O-]`, inactive: -5.93%; in that of `COc1ccc(C(=O)NCC2(N3CCOCC3)CCCCC2)cc1OC`, inactive: -6.5%.
In the case of `c1ccc(CN2CCC(Nc3ccccc3)CC2)cc1` it was inactive: 3.79%; in that of `N#Cc1ccc(C(=O)NCC2(N3CCCCC3)CCCCC2)cc1`, inactive: -6.32%; in that of `CN1CCN(CCOC(=O)C(O)(c2ccccc2)c2ccccc2)CC1`, inactive: 8.68%.
In the case of `COc1ccc(NC2CCN(C(=O)OC(C)(C)C)CC2)cc1` it was inactive: -15.8%; in that of `O=C(NCC1(N2CCOCC2)CCCCC1)c1cc(=O)[nH]c2ccccc12`, inactive: -11.1%.
Regarding `O=C(NCC1(N2CCCCC2)CCCCC1)c1cccc([N+](=O)[O-])c1`, the induction was inactive: -11%.
In the case of `N#CC1(Nc2ccccc2)CCN(CCc2ccccc2)CC1` it was inactive: -16.4%.
The result for `NC1CCCCC1.NP(=O)(O)N(CCCl)CCCl` reads inactive: -14.4%; that for `CN(C)c1cccc(C(=O)NCC2(N3CCCCC3)CCCCC2)c1`, inactive: -41.2%.
In the case of `COc1ccc(CN(CCCl)CCCl)cc1Cl` it was inactive: -41.1%.
For `CC(C)c1ccc(NC2CCN(C(=O)OC(C)(C)C)CC2)cc1`, the induction is inactive: -1.65%.
As for `CCOC(=O)N1CCC(Nc2ccc(OC)cc2)CC1`, the induction is inactive: 4.1%.
Regarding `N#CC1(Nc2ccccc2)CCN(Cc2ccccc2)CC1`, the induction is inactive: -10.8%.
In the case of `O=C(OC1CN2CCC1CC2)C1c2ccccc2Oc2ccccc21` (stereo unspecified) it was inactive: -10.9%; in that of `O=C(NCC1(N2CCOCC2)CCCCC1)c1cc2ccccc2o1`, inactive: 10.8%.
Take `COc1ccc(C(=O)NCC2(N3CCCCC3)CCCCC2)c(OC)c1OC`: the induction was inactive: 21.6%.
In the case of `Cc1ccc(OCC(C)C)c(CN(CCCl)CCCl)c1` it was inactive: 0.68%.
`COc1ccc(NC2CCN(CCc3ccccc3)CC2)c(OC)c1`: the induction is inactive: 3.54%.
In the case of `CCOc1ccc(C)cc1CN(CCCl)CCCl` it was inactive: -9.97%.
